# Experimental data published in US20170095417A1, “Percutaneous Implement and Method for Manufacturing” (priority 2015, published 2017).
# Columns and labels:
# [1] = 100 micro implements (10 x 10) in a medication; 0.01 mg Insulin per implement; 50% Insulin in Maltose
# rat = experiment: Micro payload injected in rat, hypotension and dye distribution (Example 5); details: half-shell Maltose cone mixed Rhodamine 6B
# Method: A sample of micro payload integrated a 1 mm length conic micro-head with drug and 2 mm length micro-stem without drug was injected in rat.
distribution of color in body (rat),Substance,Insulin transferred into body [1]
,Insulin,1 mg
recognized in rat whole body,Rhodamine 6B,
